Results: DBAASP

Key:
Test in all cases: ≥ marks a high value that may be exact or a test limit, other limits are often not marked, values filed in µg/mL are converted to µM
[1] = system: Erwinia amylovora PMV 6076
[2] = system: Pseudomonas syringae pv. syringae EPS 94
[3] = system: Xanthomonas campestris pv. Vesicatoria 2133-2
Bacillus subtilis = system: Bacillus subtilis
Candida albicans = system: Candida albicans
Cryptococcus neoformans = system: Cryptococcus neoformans
Escherichia coli = system: Escherichia coli
Pseudomonas putida = system: Pseudomonas putida
Saccharomyces cerevisiae = system: Saccharomyces cerevisiae
Salmonella typhimurium = system: Salmonella typhimurium
Serratia marcescens = system: Serratia marcescens
Staphylococcus aureus = system: Staphylococcus aureus
Streptococcus mutans = system: Streptococcus mutans
Streptococcus pneumoniae = system: Streptococcus pneumoniae

Compound	MIC [1] [µM]	MIC [2] [µM]	MIC [3] [µM]	MIC (Bacillus subtilis) [µM]	MIC (Candida albicans) [µM]	MIC (Cryptococcus neoformans) [µM]	MIC (Escherichia coli) [µM]	MIC (Pseudomonas putida) [µM]	MIC (Saccharomyces cerevisiae) [µM]	MIC (Salmonella typhimurium) [µM]	MIC (Serratia marcescens) [µM]	MIC (Staphylococcus aureus) [µM]	MIC (Streptococcus mutans) [µM]	MIC (Streptococcus pneumoniae) [µM]
CC[C@H](C)[C@H](NC(=O)CNC(=O)[C@H](CC(C)C)NC(=O)[C@H](Cc1ccc(O)cc1)NC(=O)[C@H](CCCCN)NC(=O)[C@H](CC(C)C)NC(=O)[C@@H](NC(=O)[C@H](CCCCN)NC(=O)[C@H](CCCCN)NC(=O)[C@H](Cc1ccccc1)NC(=O)[C@H](CC(C)C)NC(=O)[C@H](CCCCN)NC(=O)[C@@H](N)CCCCN)[C@@H](C)CC)C(=O)NCC(=O)N[C@@H](C)C(=O)N[C@H](C(=O)N[C@@H](CC(C)C)C(=O)N[C@@H](CCCCN)C(=O)N[C@H](C(=O)N[C@@H](CC(C)C)C(=O)N[C@H](C(=O)N[C@H](C(=O)NCC(=O)N[C@@H](CC(C)C)C(=O)N[C@@H](CCCCN)C(=O)N[C@@H](CC(=O)O)C(=O)N[C@@H](CCC(=O)O)C(=O)N[C@@H](CC(C)C)C(=O)O)[C@@H](C)O)[C@@H](C)O)C(C)C)C(C)C [KKLFKKILKYLGIGAVLKVLTTGLKDEL]	6.12 (≈ 19.2 µg/mL)	3.54 (≈ 11.1 µg/mL)	3.54 (≈ 11.1 µg/mL)	–	–	–	–	–	–	–	–	–	–	–
CC(C)C[C@H](NC(=O)CNC(=O)[C@H](C)NC(=O)[C@@H](N)CCCN=C(N)N)C(=O)N[C@@H](CCC(N)=O)C(=O)N[C@@H](Cc1ccccc1)C(=O)N1CCC[C@H]1C(=O)N[C@H](C(=O)NCC(=O)N[C@@H](CCCN=C(N)N)C(=O)N[C@H](C(=O)N[C@@H](Cc1cnc[nH]1)C(=O)N[C@@H](CCCN=C(N)N)C(=O)N[C@@H](CC(C)C)C(=O)N[C@@H](CC(C)C)C(=O)N[C@@H](CCCN=C(N)N)C(=O)O)C(C)C)C(C)C [RAGLQFPVGRVHRLLR]	–	–	–	8.53 (≈ 16 µg/mL)	34.1 (≈ 64 µg/mL)	≥ 34.1	8.53 (≈ 16 µg/mL)	17.1 (≈ 32 µg/mL)	≥ 68.3	8.53 (≈ 16 µg/mL)	17.1 (≈ 32 µg/mL)	34.1 (≈ 64 µg/mL)	17.1 (≈ 32 µg/mL)	17.1 (≈ 32 µg/mL)

Values after ≈ are worked out from the molar mass of the structure shown.
